Source: publication PMC5705984, “Membrane-Active Properties of an Amphitropic Peptide from the CyaA Toxin Translocation Region” (Toxins, 2017)
“Also recorded” adds a separate entry of the source.

Experiment: Peptide partition from solution to membrane followed by tryptophan intrinsic fluorescence titration
Format: physicochemical
Conditions: SUVs DOPC/DOPE/DOPG/Chol 4:3:2:1; tryptophan fluorescence and CD
Description: Small unilamellar vesicles (SUVs) were prepared at a lipid concentration of 10 mM from POPC and POPG at a molar ratio of 10:0 or 8:2 or from DOPC, DOPE, DOPG, Chol at molar ratio 10:0:0:0, 8:0:2:0, 7:3:0:0, 7:0:0:3, 6:3:0:1, and 4:3:2:1 in buffer A, as previously described. Briefly, SUVs were prepared by reverse-phase evaporation and passed through polycarbonate filters 0.8-, 0.4-, and 0.2-μm (Merck Millipore, Darmstadt, Germany). Vesicles were sonicated using a sonicator tip and their hydrodynamic diameters, dispersity, and charge were checked by dynamic light scattering (DLS) and electrophoretic mobility using a NanoZS instrument (Malvern Instruments, Orsay, France).
Fluorescence titrations were performed with a FP-8200 Jasco spectrofluorimeter, equipped with a Peltier-thermostated ETC-272T (25 °C). […] Fluorescence experiments were carried out in a 109.004F-QS cuvette (Hellma, France) with constant stirring. Fluorescence emission was recorded between 300 and 400 nm at a scan rate of 200 nm/min, with an excitation wavelength of 280 nm. Fluorescence emission spectra were corrected for SUV light scattering. Maximum emission wavelength (λmax) and fluorescence intensity ratio at 330 nm over 370 nm (P454-derived peptides) or at 340 nm over 380 nm (CyaA-derived peptides) were used to report peptide-membrane interaction and to measure the partition coefficient KX. […]

SMILES: CSCC[C@H](NC(=O)[C@H](CC(=O)O)NC(=O)[C@H](CO)NC(=O)[C@@H](NC(=O)[C@H](CCC(=O)O)NC(=O)CNC(=O)[C@H](CC(C)C)NC(=O)[C@H](CO)NC(=O)[C@H](Cc1c[nH]c2ccccc12)NC(=O)[C@H](CO)NC(C)=O)C(C)C)C(=O)N[C@@H](C)C(=O)N[C@@H](C)C(=O)N[C@H](C(=O)N[C@@H](CCC(=O)O)C(=O)N[C@@H](C)C(=O)N[C@@H](C)C(=O)N[C@@H](CCC(=O)O)C(=O)N[C@@H](CC(C)C)C(=O)N[C@@H](CCC(=O)O)C(=O)N[C@@H](CCSC)C(=O)N[C@H](C(=O)N[C@@H](CCCNC(=N)N)C(=O)N[C@@H](CCC(N)=O)C(=O)N[C@H](C(=O)N[C@@H](CC(C)C)C(=O)N[C@@H](Cc1c[nH]cn1)C(=O)N[C@@H](C)C(N)=O)C(C)C)[C@@H](C)O)C(C)C [Peptide P414]
- ability to interact with / partition into membranes: no detectable change of tryptophan fluorescence or CD signature; also recorded: do not
